Laboratory results as given in PMC6121455, “Synthesis and Spectrum of Biological Activities of Novel N-arylcinnamamides” (International Journal of Molecular Sciences, 2018).

Settings: RP-HPLC, C18, isocratic MeOH 72%/H2O 28%

Work on O=C(/C=C/c1ccccc1)Nc1ccccc1F [Compound 4, (2E)-N-(2-Fluorophenyl)-3-phenylprop-2-enamide] yielded a log k of 0.1330.
